Experimental data taken from paper PMC5777145 (Analytical chemistry, 2017).

Tests used:
salmon testes DNA [1] = details: human, rat (enzyme sources), pH 7.4
salmon testes DNA [2] = details: human, rat (enzyme sources)

## Nc1ccc(-c2ccccc2)cc1 [4ABP, 4-Aminobiphenyl]
Salmon testes DNA [1]
  influence of cyt P450 source on relative DNA oxidation rate: Supersome 1A2 had the largest relative DNA oxidation and adduction rates
Salmon testes DNA [2]
  influence of cyt P450 source on relative DNA adduction rate: Supersome 1A2 had the largest relative DNA oxidation and adduction rates
